What follows is the remainder of the data, with few or none of the strong results.
The compounds below were run on M. mycetomatis strain mm55. Details: m. mycetomatis hyphae, 96 h, 2 µM.

Row | SMILES | % viability [%]
1 | OC[C@H]1OC(O)[C@H](F)[C@@H](O)[C@H]1O (stereo partly shown) [ONC0004665, 2deoxy2fluorodgalactose] | 106.8

Reference: article PMC12670160, “A drug-repurposing screen of FDA- and EMA-approved drugs identifies two NF-κB inhibitors active against eumycetoma” (Journal of Antimicrobial Chemotherapy, 2025)
